Test results from US11911361B2, “Stable cannabinoid formulations” (priority 2014, dated 2024).

Test system: minimal muscular or neurological impairment
Assay: Minimal motor impairment (rotorod) toxicity test (TOX), mice

C=C(C)[C@@H]1CCC(C)=C[C@H]1c1c(O)cc(CCCCC)cc1O [cannabidiol, (−)-trans-2-p-mentha-1,8-dien-3-yl-5-pentylresorcinol]
TOX N/F (minimal motor impairment) (Anticonvulsant Screening, mice, intraperitoneal, 10 mg/kg, 0.5 h, ethanol:polyethoxylated castor oil:PBS): 0/8
TOX N/F (minimal motor impairment) (Anticonvulsant Screening, mice, intraperitoneal, 10 mg/kg, 0.5 h, methylcellulose): 0/8
TOX N/F (minimal motor impairment) (Anticonvulsant Screening, mice, intraperitoneal, 10 mg/kg, 1.0 h, ethanol:polyethoxylated castor oil:PBS): 0/8
TOX N/F (minimal motor impairment) (Anticonvulsant Screening, mice, intraperitoneal, 10 mg/kg, 1.0 h, methylcellulose): 0/8
TOX N/F (minimal motor impairment) (Anticonvulsant Screening, mice, intraperitoneal, 10 mg/kg, 2.0 h, ethanol:polyethoxylated castor oil:PBS): 0/8
TOX N/F (minimal motor impairment) (Anticonvulsant Screening, mice, intraperitoneal, 10 mg/kg, 2.0 h, methylcellulose): 0/8
TOX N/F (minimal motor impairment) (Anticonvulsant Screening, mice, intraperitoneal, 30 mg/kg, 0.5 h, ethanol:polyethoxylated castor oil:PBS): 0/8
TOX N/F (minimal motor impairment) (Anticonvulsant Screening, mice, intraperitoneal, 30 mg/kg, 0.5 h, methylcellulose): 0/8
TOX N/F (minimal motor impairment) (Anticonvulsant Screening, mice, intraperitoneal, 30 mg/kg, 1.0 h, ethanol:polyethoxylated castor oil:PBS): 0/8
TOX N/F (minimal motor impairment) (Anticonvulsant Screening, mice, intraperitoneal, 30 mg/kg, 1.0 h, methylcellulose): 0/8
TOX N/F (minimal motor impairment) (Anticonvulsant Screening, mice, intraperitoneal, 30 mg/kg, 2.0 h, ethanol:polyethoxylated castor oil:PBS): 0/8
TOX N/F (minimal motor impairment) (Anticonvulsant Screening, mice, intraperitoneal, 30 mg/kg, 2.0 h, methylcellulose): 0/8
TOX N/F (minimal motor impairment) (Anticonvulsant Screening, mice, intraperitoneal, 100 mg/kg, 0.5 h, ethanol:polyethoxylated castor oil:PBS): 0/8
TOX N/F (minimal motor impairment) (Anticonvulsant Screening, mice, intraperitoneal, 100 mg/kg, 0.5 h, methylcellulose): 0/8
TOX N/F (minimal motor impairment) (Anticonvulsant Screening, mice, intraperitoneal, 100 mg/kg, 1.0 h, ethanol:polyethoxylated castor oil:PBS): 0/8
TOX N/F (minimal motor impairment) (Anticonvulsant Screening, mice, intraperitoneal, 100 mg/kg, 1.0 h, methylcellulose): 0/8
TOX N/F (minimal motor impairment) (Anticonvulsant Screening, mice, intraperitoneal, 100 mg/kg, 2.0 h, ethanol:polyethoxylated castor oil:PBS): 0/8
TOX N/F (minimal motor impairment) (Anticonvulsant Screening, mice, intraperitoneal, 100 mg/kg, 2.0 h, methylcellulose): 0/8
TOX N/F (minimal motor impairment) (ED50 Biological Response (Table 57), mice, 500 mg/kg, 2 h, methylcellulose): 0/8
TOX N/F (minimal motor impairment) (ED50 Biological Response (Table 59, MES/sc Met study), mice, 175 mg/kg, 2 h, ethanol:polyethoxylated castor oil:PBS): 0/8
TOX N/F (minimal motor impairment) (ED50 Biological Response (Table 59, MES/sc Met study), mice, 250 mg/kg, 2 h, ethanol:polyethoxylated castor oil:PBS): 4/8
TOX N/F (minimal motor impairment) (ED50 Biological Response (Table 59, MES/sc Met study), mice, 325 mg/kg, 2 h, ethanol:polyethoxylated castor oil:PBS): 6/8
toxicity observations (in words) (Example 12, 1:1:18 ethanol:polyethoxylated castor oil:PBS solvent): Death was reported at 24 hours at 300 mg/kg and at 6 and 24 hours for 500 mg/kg
toxicity observations (in words) (Example 13): Myoclonic jerks were reported in at 1 hour with 200 mg/kg dose and at 2 hours with 360 mg/kg dose
TOX N/F (minimal motor impairment) (Tables 55/56 (6 Hz study), CF1 mice, intraperitoneal, 200 mg/kg, 2 h, ethanol:polyethoxylated castor oil:PBS): 0/8
TOX N/F (minimal motor impairment) (Tables 55/56 (6 Hz study), CF1 mice, intraperitoneal, 250 mg/kg, 2 h, ethanol:polyethoxylated castor oil:PBS): 4/8
TOX N/F (minimal motor impairment) (Tables 55/56 (6 Hz study), CF1 mice, intraperitoneal, 300 mg/kg, 2 h, ethanol:polyethoxylated castor oil:PBS): 6/8
TOX N/F (minimal motor impairment) (Tables 55/56 (6 Hz study), CF1 mice, intraperitoneal, 500 mg/kg, 2 h, ethanol:polyethoxylated castor oil:PBS): 8/8
TOX N/F (minimal motor impairment) (Tables 59/60 (MES/sc Met study), mice, 500 mg/kg, 2 h, ethanol:polyethoxylated castor oil:PBS): 8/8
TOX N/F (minimal motor impairment) (Time to Peak Effect (Table 56), CF1 mice, intraperitoneal, 200 mg/kg, 4 h, ethanol:polyethoxylated castor oil:PBS): 0/8
TOX N/F (minimal motor impairment) (Time to Peak Effect (Table 56), CF1 mice, intraperitoneal, 250 mg/kg, 4 h, ethanol:polyethoxylated castor oil:PBS): 3/8
TOX N/F (minimal motor impairment) (Time to Peak Effect (Table 56), CF1 mice, intraperitoneal, 300 mg/kg, 4 h, ethanol:polyethoxylated castor oil:PBS): 7/8
TOX N/F (minimal motor impairment) (Time to Peak Effect (Table 56), CF1 mice, intraperitoneal, 300 mg/kg, 6 h, ethanol:polyethoxylated castor oil:PBS): 4/8
TOX N/F (minimal motor impairment) (Time to Peak Effect (Table 56), CF1 mice, intraperitoneal, 300 mg/kg, 8 h, ethanol:polyethoxylated castor oil:PBS): 2/8
TOX N/F (minimal motor impairment) (Time to Peak Effect (Table 56), CF1 mice, intraperitoneal, 300 mg/kg, 24 h, ethanol:polyethoxylated castor oil:PBS): 1/8
TOX N/F (minimal motor impairment) (Time to Peak Effect (Table 56), CF1 mice, intraperitoneal, 500 mg/kg, 0.25 h, ethanol:polyethoxylated castor oil:PBS): 0/8
TOX N/F (minimal motor impairment) (Time to Peak Effect (Table 56), CF1 mice, intraperitoneal, 500 mg/kg, 0.5 h, ethanol:polyethoxylated castor oil:PBS): 0/8
TOX N/F (minimal motor impairment) (Time to Peak Effect (Table 56), CF1 mice, intraperitoneal, 500 mg/kg, 1 h, ethanol:polyethoxylated castor oil:PBS): 0/8
TOX N/F (minimal motor impairment) (Time to Peak Effect (Table 56), CF1 mice, intraperitoneal, 500 mg/kg, 4 h, ethanol:polyethoxylated castor oil:PBS): 8/8
TOX N/F (minimal motor impairment) (Time to Peak Effect (Table 56), CF1 mice, intraperitoneal, 500 mg/kg, 6 h, ethanol:polyethoxylated castor oil:PBS): 8/8
TOX N/F (minimal motor impairment) (Time to Peak Effect (Table 56), CF1 mice, intraperitoneal, 500 mg/kg, 24 h, ethanol:polyethoxylated castor oil:PBS): 4/7
TOX N/F (minimal motor impairment) (Time to Peak Effect (Table 58), mice, 300 mg/kg, 0.25 h, methylcellulose): 0/4
TOX N/F (minimal motor impairment) (Time to Peak Effect (Table 58), mice, 300 mg/kg, 0.5 h, methylcellulose): 0/4
TOX N/F (minimal motor impairment) (Time to Peak Effect (Table 58), mice, 300 mg/kg, 1 h, methylcellulose): 0/4
TOX N/F (minimal motor impairment) (Time to Peak Effect (Table 58), mice, 300 mg/kg, 2 h, methylcellulose): 0/4
TOX N/F (minimal motor impairment) (Time to Peak Effect (Table 58), mice, 300 mg/kg, 4 h, methylcellulose): 0/4
TOX N/F (minimal motor impairment) (Time to Peak Effect (Table 60), mice, 500 mg/kg, 0.25 h, ethanol:polyethoxylated castor oil:PBS): 0/8
TOX N/F (minimal motor impairment) (Time to Peak Effect (Table 60), mice, 500 mg/kg, 0.5 h, ethanol:polyethoxylated castor oil:PBS): 0/8
TOX N/F (minimal motor impairment) (Time to Peak Effect (Table 60), mice, 500 mg/kg, 1 h, ethanol:polyethoxylated castor oil:PBS): 0/8
TOX N/F (minimal motor impairment) (Time to Peak Effect (Table 60), mice, 500 mg/kg, 4 h, ethanol:polyethoxylated castor oil:PBS): 7/8
TOX N/F (minimal motor impairment) (Time to Peak Effect (Table 60), mice, 500 mg/kg, 6 h, ethanol:polyethoxylated castor oil:PBS): 7/8
TOX N/F (minimal motor impairment) (Time to Peak Effect (Table 60), mice, 500 mg/kg, 8 h, ethanol:polyethoxylated castor oil:PBS): 4/8
